{"source": "patent US6624199B1", "about": "“Aminobenzophenones” (Leo Pharmaceuticals Products Ltd. A/S, priority 1999, dated 2003)", "origin": "cited, not measured here", "details": "topical administration; cited from earlier work"}
{"smiles": "CCC[C@@H]1C[C@@H](C(=O)N[C@@H]([C@H]2O[C@H](SC)[C@H](O)[C@@H](O)[C@H]2O)[C@H](C)Cl)N(C)C1", "note": "[Clindamycin]", "values": [{"measurement": "Potential irritant", "value": "No"}]}
